The results in this text go back to ChEMBL document CHEMBL6087483, “Discovery of Potent, Highly Selective, and Orally Bioavailable MTA Cooperative PRMT5 Inhibitors with Robust In Vivo Antitumor Activity” (J Med Chem, 2025).

The nature of the assay: Selectivity ratio of IC50 for inhibition of PRMT5 (unknown origin) to IC50 for inhibition of PRMT5 (unknown origin) in presence of MTA.

In the case of `CN(C(=O)c1cc2c3c(c(N)nc2cc1F)COC3)[C@@H]1CCN(c2ccc(C#N)cc2)C1`, the Ratio IC50 stood at 14.5.
